In the experiment the target is Nucleotide-binding oligomerization domain-containing protein 2 (Homo sapiens, UniProt Q9HC29).

Protein sequences, listed by entry. Tags and fused reporters are not part of them.
UniProt Q9HC29, whole entry: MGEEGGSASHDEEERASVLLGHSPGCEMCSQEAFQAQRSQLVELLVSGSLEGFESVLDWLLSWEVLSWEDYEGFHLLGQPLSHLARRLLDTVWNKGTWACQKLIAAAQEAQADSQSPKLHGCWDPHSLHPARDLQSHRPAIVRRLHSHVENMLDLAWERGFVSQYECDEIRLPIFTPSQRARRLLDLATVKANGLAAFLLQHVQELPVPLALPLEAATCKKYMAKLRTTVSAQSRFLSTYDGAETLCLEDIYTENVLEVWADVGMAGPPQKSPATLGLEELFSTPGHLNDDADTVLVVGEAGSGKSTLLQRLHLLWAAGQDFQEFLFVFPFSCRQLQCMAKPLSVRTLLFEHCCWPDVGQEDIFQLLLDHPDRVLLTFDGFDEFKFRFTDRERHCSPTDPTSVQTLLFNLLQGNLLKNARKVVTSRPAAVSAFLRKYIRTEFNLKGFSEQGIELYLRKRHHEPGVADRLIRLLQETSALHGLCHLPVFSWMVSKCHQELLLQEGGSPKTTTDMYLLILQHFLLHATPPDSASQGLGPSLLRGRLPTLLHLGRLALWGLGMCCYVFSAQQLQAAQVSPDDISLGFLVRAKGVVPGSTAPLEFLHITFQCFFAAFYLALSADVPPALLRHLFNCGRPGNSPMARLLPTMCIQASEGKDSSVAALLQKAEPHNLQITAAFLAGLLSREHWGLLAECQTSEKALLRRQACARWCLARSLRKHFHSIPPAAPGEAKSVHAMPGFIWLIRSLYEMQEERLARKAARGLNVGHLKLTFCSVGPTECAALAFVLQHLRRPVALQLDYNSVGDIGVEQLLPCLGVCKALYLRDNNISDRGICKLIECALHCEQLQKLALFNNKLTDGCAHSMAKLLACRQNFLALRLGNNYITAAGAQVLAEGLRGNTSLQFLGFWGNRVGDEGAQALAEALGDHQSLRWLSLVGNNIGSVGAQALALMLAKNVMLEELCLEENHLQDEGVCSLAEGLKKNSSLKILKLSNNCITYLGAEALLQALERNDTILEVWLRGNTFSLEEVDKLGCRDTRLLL

For orientation: IC50 means the point on the concentration scale where inhibition reaches its midpoint. A lower IC50 goes with greater potency in that assay. Molecule `Nc1nc2ccccc2n1C(=O)c1ccc(Cl)cc1Cl` showed a half-maximal inhibitory concentration (IC50) of 3.8 µM.

The record behind these values is ChEMBL document CHEMBL2016464, “Identification of Inhibitors of NOD1-Induced Nuclear Factor-κB Activation” (ACS Med Chem Lett, 2011).
